The list is not random: actives were taken first. Their share in the collection is about 1.7%.
CDK5 inh: inhibitors of human CDK5/p35 kinase, primary screen, biochemical, single concentration; Recombinant CDK5/p35, ADP-Glo luminescence, 60 min; inhibition, % at 10 µM; 330,000 compounds, 0.01% hits; AID 488839, 2010;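 active means highest replicate inhibition of at least 50% and at least 75% of replicates reaching 50%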;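 further: plate controls were DMSO neutral control for no effect and GW8510 at 10 µM for full effect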
DYRK1A inh: rat Dyrk1A kinase inhibitors, primary screen, biochemical, single point, plate reader; ADP-Glo luminescence, NFATc1 peptide; inhibition, % at 12.5 µM; 310,000 compounds, 0.43% hits; Dual specificity tyrosine-phosphorylation-regulated kinase 1A (Rattus norvegicus), Q63470; AID 504441, 2011; in the data active means inhibition above about 50%;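 further: plate controls were vehicle with enzyme for no effect and no enzyme for full effect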
CAL PDZ FP-1: CAL PDZ peptide-binding inhibitors, primary screen, biochemical, fluorescence polarization, Cer-tagged CAL PDZ, HTS | Golgi-associated PDZ and coiled-coil motif-containing protein (Homo sapiens), Q9HD26 | inhibition, % at 20 µM | purified CAL PDZ, TMR-peptide fluorescence polarization, 1 h | AID 504414, 2011 | 330,000 compounds, 0.02% hits;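 active means highest replicate inhibition of at least 40%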;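 further: plate controls were DMSO neutral control wells for no effect and unlabeled competitor peptide control wells for full effect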
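Test system: tagged CAL PDZ domain / Buffer or medium: sodium phosphate/NaCl buffer pH 7.4 with TCEP, IgG, Thesit / Reagent: TMR-labelled reporter peptide T*-PRC34 bound in PDZ groove / Compound dosing: single point, 20 µM / Schedule: 1 h incubation at room temperature before polarization reading / Technique: fluorescence polarization (mP) / Benchmarks: unlabelled peptide, DMSO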
UUG fidelity: alters start codon recognition fidelity in yeast. 350,000 tested, 0.13% active. activity score, % at 18.7 µM. S. cerevisiae UUG-firefly luciferase reporter, luminescence/redox ratio;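 active = replicate mean at a twofold rise or more, about +100% in these data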;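 also: firefly luciferase made from a UUG start codon reports start codon fidelity; reporter light over untreated wells divided by growth signal over untreated wells; some hits fall short of that in this replicate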
dFosB activator: activators of delta FosB homodimer, primary screen, biochemical, fluorescence polarization, TAMRA-CDK5 oligo, single point; Protein FosB (Mus musculus), P13346; purified delta FosB; percent of positive-control signal above neutral wells; activation, % at 25 µM; 340,000 compounds, 0.99% hits;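 active means mean activation above about 17%, with every replicate also reaching it, limit read from the data, passing the limit was not always enough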
CAL PDZ FP-2: untagged CAL PDZ binding inhibitors, primary screen, biochemical, fluorescence polarization, HTS; Golgi-associated PDZ and coiled-coil motif-containing protein (Homo sapiens), Q9HD26; purified CAL PDZ, TMR-peptide fluorescence polarization, 1 h; inhibition, % at 24.9 µM; 300,000 compounds, 0.92% hits;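 active means mean inhibition of at least 30% with at least half of replicates also reaching 30%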;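 further: 0% = DMSO neutral control and 100% = excess unlabeled competitor peptide PRC23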
* marks the source's active call; other numbers are inactive results; · = not tested or not shown.

nr	mol	dFosB activator	CAL PDZ FP-2	CDK5 inh
1	O=C(CCN1CCCCC1)NCC[C@@H]1CC[C@@H](NC(=O)c2ccc(F)cc2)[C@@H](CO)O1	·	·	·
2	C[C@@H]1CCCCO[C@H](CN(C)S(=O)(=O)c2ccccc2)[C@H](C)CN([C@H](C)CO)C(=O)c2cc(NC(=O)Nc3cccc4ccccc34)ccc2O1	·	·	·
3	C[C@@H]1CN([C@@H](C)CO)C(=O)c2cc(NC(=O)Nc3cccc4ccccc34)ccc2O[C@@H](C)CCCCO[C@H]1CN(C)C(=O)Cc1ccccc1	·	·	·
4	COc1ccc(-n2nc3c(N4CCC(C(=O)NCCc5ccccc5C)CC4)nnc(C)c3c2C)cc1	-0.9	-3.0	-0.8
5	COc1ccc(-n2nc3c(N4CCC(C(=O)NCc5ccccc5C)CC4)nnc(C)c3c2C)cc1	76.8*	-3.5	1.0
6	CNC[C@@H]1OCCCC[C@H](C)Oc2ccc(NC(=O)Nc3ccc(OC)cc3)cc2C(=O)N([C@H](C)CO)C[C@H]1C	·	·	·
7	CCCC#Cc1cnc2c(c1)C(=O)N([C@@H](C)CO)C[C@@H](C)[C@@H](CN(C)C(=O)Cc1ccncc1)O2	·	·	·
8	CCOC(=O)c1cc(C#N)c(N2CCN(C(=O)c3cccc(C(F)(F)F)c3)CC2)nc1C(F)(F)F	-2.9	65.2*	-0.5
9	CCOC(=O)c1cc(C#N)c(N2CCN(C(=O)c3ccccc3)CC2)nc1C(F)(F)F	-16.9	3.5	1.1
10	Cc1noc(C)c1NC(=O)Nc1ccc2c(c1)C(=O)N([C@H](C)CO)C[C@H](C)[C@H](CN(C)S(=O)(=O)c1ccc(F)cc1)O2	·	·	·
11	CN(CC(=O)NCC(=O)Nc1ccc(F)cc1)CC(=O)Nc1ccc(Cl)c(C(F)(F)F)c1	-2.0	46.7*	1.5
12	CN(CC(=O)NCc1ccc(F)cc1)CC(=O)Nc1ccc(Cl)c(C(F)(F)F)c1	-7.8	·	0.0
13	COc1ccc(-n2nnnc2/C=C/Nc2cc(C(F)(F)F)ccc2OC)cc1	-13.2	104.8*	0.5
14	COc1ccc(-n2nnnc2/C=C\Nc2ccccc2C(=O)c2ccccc2)cc1	-2.9	-3.8	0.2
15	COc1cccc(S(=O)(=O)N2CC[C@@H]3[C@@H](CO)Nc4ccc(C#Cc5ccccc5)cc4[C@@H]32)c1	·	·	·

nr	UUG fidelity	CAL PDZ FP-1	DYRK1A inh
1	-1.0	·	·
2	-6.6	·	·
3	-16.5	·	·
4	-6.0	-2.6	-1.8
5	-5.5	-0.6	1.3
6	14.4	·	·
7	-26.6	·	·
8	·	-1.8	·
9	·	-1.9	-10.1
10	2.3	·	·
11	15.2	-0.6	·
12	6.6	0.1	10.6
13	-7.3	0.3	1.0
14	-6.3	0.2	-2.2
15	0.6	·	·

(cont.)
nr	mol	dFosB activator	CAL PDZ FP-2	CDK5 inh
16	C[C@@H]1CN([C@H](C)CO)C(=O)c2cc(C#CCN(C)C)cnc2O[C@@H]1CN(C)C(=O)CCN1CCCCC1	·	·	·
17	COc1cc(NC(=S)N2CCN(S(=O)(=O)c3ccc(F)cc3)CC2)cc(OC)c1	0.5	48.3*	0.0
18	C[C@@H]1CN([C@H](C)CO)C(=O)c2cccc(N(C)C)c2O[C@H]1CN(C)Cc1ccc(Oc2ccccc2)cc1	·	·	·
19	O=C(Cc1ccccc1)Nc1cccc([N+](=O)[O-])c1	4.6	4.1	1.7
20	O=C(CNS(=O)(=O)c1cccc(Br)c1)NCCCc1ccccc1	-9.0	44.3*	0.4
21	O=C(CNc1cccc([N+](=O)[O-])c1)NCCCc1ccccc1	-8.0	38.4*	1.4
22	CO[C@H]1CN(C)C(=O)c2cc(NC(=O)C3CC3)ccc2OC[C@@H](C)N(C)C[C@H]1C	·	·	·
23	C[C@H](CO)N1C[C@H](C)[C@H](CN(C)C(=O)Nc2ccc(F)cc2)Oc2ccc(NC(=O)C3CCCCC3)cc2CC1=O	·	·	·
24	O=C(O)c1cc2c(cc1Cl)N1CCCCCC1=NS2(=O)=O	0.4	50.8*	-1.9
25	C[C@@H](NC(=O)C[C@H]1C[C@@H]2c3cc(NC(=O)NC4CCCC4)ccc3O[C@@H]2[C@H](CO)O1)c1ccccc1	·	·	·
26	Cc1ccc(-c2nn(-c3ccccc3)cc2/C=N/NC(=O)c2ccncc2)o1	26.2*	-14.2	0.8
27	N#C/C(=C\c1ccc(O)c(Br)c1)C(=O)NCc1ccccc1	-7.8	-2.7	2.0
28	N#C/C(=C/c1ccccc1)C(=O)NCc1ccccc1	-16.6	-1.8	-1.2
29	O=C1OC2(CCCCC2)OC(=O)C1=CNc1nccs1	-0.9	-4.4	-1.7
30	O=C1OC2(CCCCC2)OC(=O)C1=CNc1nc2ccccc2s1	-2.1	51.9*	-2.8

nr	UUG fidelity	CAL PDZ FP-1	DYRK1A inh
16	6.9	·	·
17	-20.2	-1.7	-12.5
18	6.9	·	·
19	1.1	-0.6	9.7
20	3.9	-0.9	-7.9
21	-7.4	-0.3	5.0
22	-6.0	·	·
23	11.2	·	·
24	·	0.5	0.4
25	19.6	·	·
26	·	-8.5	-3.1
27	·	0.6	86.3*
28	-14.4	-4.0	1.1
29	-9.0	-0.6	4.2
30	-6.8	30.2	4.6

Remaining list, next part:
nr	mol	dFosB activator	CAL PDZ FP-2	CDK5 inh
31	CCOc1cccc(-c2c(C(=O)N/N=C/c3ccoc3)nnn2-c2nonc2N)c1	-5.0	4.7	·
32	Nc1nonc1-n1nnc(C(=O)N/N=C/c2ccccn2)c1CNc1ccccc1	-7.6	131.1*	-0.4
33	CCCOc1ccc(-c2c(C(=O)N/N=C/c3ccsc3)nnn2-c2nonc2N)cc1	20.3*	-5.2	-1.0
34	CCOc1ccc(/C=N/NC(=O)c2nnn(-c3nonc3N)c2-c2ccc(OCC)cc2)cc1	1.3	-5.4	0.2
35	CCOc1cccc(-c2c(C(=O)N/N=C/c3ccncc3)nnn2-c2nonc2N)c1	-12.6	-3.7	3.0
36	Nc1nonc1-n1nnc(C(=O)N/N=C/c2ccccn2)c1-c1ccccc1	-8.8	4.3	-0.7
37	CN(C)Cc1c(C(=O)N/N=C/c2ccc(OCc3c(F)cccc3Cl)cc2)nnn1-c1nonc1N	3.0	76.6*	-0.6
38	COc1ccccc1-c1ccc([C@@H]2[C@@H](C#N)N(C(=O)C3CC3)[C@H]2CO)cc1	·	·	·
39	C[C@@H]1CCCCO[C@H](CN(C)S(=O)(=O)c2ccccc2)[C@H](C)CN([C@@H](C)CO)C(=O)c2cc(NC(=O)c3ccncc3)ccc2O1	·	·	·
40	C[C@@H]1CN([C@H](C)CO)C(=O)Cc2cc(NS(=O)(=O)c3cccs3)ccc2O[C@@H]1CN(C)C(=O)NC1CCCCC1	·	·	·
41	Fc1ccc(Cn2nnc3ccccc32)cc1	-1.3	123.1*	-0.3
42	CC(=O)Nc1ccc(NC(=O)Cn2c(-c3ccc(F)cc3)cnc2SCC(=O)Nc2c(C)cccc2C)cc1	64.3*	-0.9	0.4
43	O=C(NCc1ccc(F)cc1)c1c2c(nc3ccccc13)CCN(Cc1ccccc1)C2	3.1	57.4*	-1.7

nr	UUG fidelity	CAL PDZ FP-1	DYRK1A inh
31	-27.4	-1.7	·
32	-10.1	0.1	0.8
33	-3.3	-2.9	2.4
34	-18.4	-1.1	-2.3
35	-17.8	-3.4	60.0*
36	-17.5	-1.5	15.2
37	-9.6	2.4	-2.4
38	-6.2	·	·
39	-6.4	·	·
40	15.1	·	·
41	-7.6	·	-1.2
42	-16.9	-1.7	0.1
43	·	-1.6	4.5

Single records (already shown):
`COc1ccccc1-c1ccc([C@@H]2[C@@H](C#N)N(C(=O)C3CC3)[C@H]2CO)cc1` is listed as dFosB activator = ·; CAL PDZ FP-2 = ·; CDK5 inh = ·; UUG fidelity = -6.2; CAL PDZ FP-1 = ·; DYRK1A inh = ·
`Nc1nonc1-n1nnc(C(=O)N/N=C/c2ccccn2)c1CNc1ccccc1` is listed as dFosB activator = -7.6; CAL PDZ FP-2 = 131.1*; CDK5 inh = -0.4; UUG fidelity = -10.1; CAL PDZ FP-1 = 0.1; DYRK1A inh = 0.8
